Chains of the proteins cited; added tags and fusions are not shown.
UniProt Q61180, whole entry: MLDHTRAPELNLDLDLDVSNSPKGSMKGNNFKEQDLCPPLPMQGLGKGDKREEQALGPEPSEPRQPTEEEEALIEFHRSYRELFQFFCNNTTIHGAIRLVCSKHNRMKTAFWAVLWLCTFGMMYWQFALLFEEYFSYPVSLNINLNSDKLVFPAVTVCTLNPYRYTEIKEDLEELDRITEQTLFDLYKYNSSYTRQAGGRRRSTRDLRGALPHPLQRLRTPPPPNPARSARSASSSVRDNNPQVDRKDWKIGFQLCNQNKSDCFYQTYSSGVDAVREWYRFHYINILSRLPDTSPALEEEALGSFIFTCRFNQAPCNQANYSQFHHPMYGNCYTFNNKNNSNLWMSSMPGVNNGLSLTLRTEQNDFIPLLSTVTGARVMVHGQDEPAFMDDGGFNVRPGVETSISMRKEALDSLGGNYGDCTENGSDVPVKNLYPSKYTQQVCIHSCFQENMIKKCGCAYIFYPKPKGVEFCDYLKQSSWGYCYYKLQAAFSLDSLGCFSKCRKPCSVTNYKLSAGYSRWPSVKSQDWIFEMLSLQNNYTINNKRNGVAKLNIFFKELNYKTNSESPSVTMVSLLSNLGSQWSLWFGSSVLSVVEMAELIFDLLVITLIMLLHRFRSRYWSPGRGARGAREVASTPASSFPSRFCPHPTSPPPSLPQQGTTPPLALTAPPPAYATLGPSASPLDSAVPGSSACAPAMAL
UniProt Q9WU38, whole entry: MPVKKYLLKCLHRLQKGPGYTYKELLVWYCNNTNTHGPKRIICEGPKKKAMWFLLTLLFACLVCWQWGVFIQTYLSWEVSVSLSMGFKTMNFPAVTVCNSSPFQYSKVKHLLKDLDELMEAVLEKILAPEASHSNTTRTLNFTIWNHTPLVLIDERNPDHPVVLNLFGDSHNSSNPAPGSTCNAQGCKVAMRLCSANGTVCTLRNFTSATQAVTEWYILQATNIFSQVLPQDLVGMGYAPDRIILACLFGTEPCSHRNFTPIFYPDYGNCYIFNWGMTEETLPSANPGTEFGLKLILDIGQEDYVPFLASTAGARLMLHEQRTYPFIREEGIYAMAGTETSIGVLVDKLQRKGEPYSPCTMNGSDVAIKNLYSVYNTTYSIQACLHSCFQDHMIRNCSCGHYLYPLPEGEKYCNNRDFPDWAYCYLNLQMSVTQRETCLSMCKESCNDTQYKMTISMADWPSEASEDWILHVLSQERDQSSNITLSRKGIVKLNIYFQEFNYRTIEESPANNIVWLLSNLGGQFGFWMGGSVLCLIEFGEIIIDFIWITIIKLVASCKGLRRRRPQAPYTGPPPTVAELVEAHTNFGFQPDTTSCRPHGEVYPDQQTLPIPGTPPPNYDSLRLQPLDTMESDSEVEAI
UniProt Q9WU39, whole entry: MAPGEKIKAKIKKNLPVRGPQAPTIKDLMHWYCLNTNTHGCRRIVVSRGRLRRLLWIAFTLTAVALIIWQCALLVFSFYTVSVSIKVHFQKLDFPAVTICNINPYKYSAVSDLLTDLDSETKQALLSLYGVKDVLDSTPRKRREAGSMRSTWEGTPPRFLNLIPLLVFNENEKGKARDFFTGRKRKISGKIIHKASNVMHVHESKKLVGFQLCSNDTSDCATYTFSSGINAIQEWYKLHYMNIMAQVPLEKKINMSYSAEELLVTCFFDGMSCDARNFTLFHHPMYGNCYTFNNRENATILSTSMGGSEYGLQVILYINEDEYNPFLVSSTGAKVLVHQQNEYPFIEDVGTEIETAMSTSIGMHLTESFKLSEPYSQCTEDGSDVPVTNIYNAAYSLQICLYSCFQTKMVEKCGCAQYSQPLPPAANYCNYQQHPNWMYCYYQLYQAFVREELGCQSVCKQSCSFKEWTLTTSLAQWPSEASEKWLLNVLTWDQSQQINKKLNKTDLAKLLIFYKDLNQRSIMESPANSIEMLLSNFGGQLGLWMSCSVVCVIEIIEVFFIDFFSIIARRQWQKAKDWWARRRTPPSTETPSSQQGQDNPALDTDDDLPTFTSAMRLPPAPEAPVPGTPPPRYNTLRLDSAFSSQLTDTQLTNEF

In US8859559B2, “Substituted pyrazines and their use in the treatment of disease” (Boehringer Ingelheim International GmbH, priority 2011, dated 2014):

Target: ENaC (Epithelial Sodium Channel) (Mus musculus, UniProt Q61180+Q9WU38+Q9WU39)
Test: Ussing chamber: inhibition of amiloride sensitive short circuit current (I_sc) in M-1 cells
Settings: mouse kidney M-1 cells
Experimental: Mouse kidney M-1 cells were cultivated in DMEM containing 5% FCS and 5 μM dexamethasone for 10 to 12 days on polyester transwell filters. Filters were inserted into a teflon-coated well-plate which fit into the in-house ussing chamber system. Prior to measurement the medium of M-1 cells was replaced with Caco-2 transport buffer (Invitrogen, Germany). During measurements, the Ussing chamber temperature was kept at 37° C. Short circuit currents (I_sc) were measured in the voltage-clamp mode using an in-house built amplifier (Boehringer Ingelheim, Biberach) with the software package Lab View for data acquisition and analysis. The transepithelial electrical resistance (TEER) was determined by the application of voltage steps of ±5 mV every 5 sec. Compounds were administered at a final concentration of 3 μM or at increasing concentrations (1-3-10 μM) to the apical solution. At the end of each experiment the amiloride sensitive I_SC was measured by adding 3 μM amiloride to the apical compartment. Results are expressed as inhibition in percent of the amiloride effect or as IC50. With the example compounds given above, the following IC50 values were determined in the Ussing Chamber assay: […]

| IC50 (tested form: TFA) | IC50 | SMILES |
| --- | --- | --- |
| 2 nM |  | C[N+](C)(C)CCNC(=O)c1ccc(CN2CCC(NC(N)=NC(=O)c3nc(Cl)c(N)nc3N)CC2)cc1 |
|  | 23 nM | CCOP(=O)(O)c1ccc(CN2CCC(NC(N)=NC(=O)c3nc(Cl)c(N)nc3N)CC2)cc1 |
|  | 8 nM | CC(=O)NCCNS(=O)(=O)c1ccc(CN2CCC(NC(N)=NC(=O)c3nc(Cl)c(N)nc3N)CC2)cc1 |
| 103 nM |  | NC(=NC(=O)c1nc(Br)c(N)nc1N)NC1CCN(Cc2ccc(OCC(=O)O)cc2)CC1 |
|  | 8 nM | COC(=O)COc1ccc(CN2CCC(NC(N)=NC(=O)c3nc(Cl)c(N)nc3N)CC2)cc1 |
|  | 4 nM | COC(=O)COc1cc(CN2CCC(NC(N)=NC(=O)c3nc(Cl)c(N)nc3N)CC2)cc(OCC(=O)OC)c1 |
|  | 45 nM | NC(=NC(=O)c1nc(Cl)c(N)nc1N)NC1CCN(Cc2cccc(C(=O)O)c2)CC1 |
|  | 4 nM | COC(=O)c1cc(CN2CCC(NC(N)=NC(=O)c3nc(Cl)c(N)nc3N)CC2)cc(C(=O)NCCOCCO)c1 |
